Patent US20030054004A1 (published 2003)

Sequences of proteins named here, by UniProt entry; tags and fusion partners are left off. Residues count along the entry.
UniProt P01375, 77-233: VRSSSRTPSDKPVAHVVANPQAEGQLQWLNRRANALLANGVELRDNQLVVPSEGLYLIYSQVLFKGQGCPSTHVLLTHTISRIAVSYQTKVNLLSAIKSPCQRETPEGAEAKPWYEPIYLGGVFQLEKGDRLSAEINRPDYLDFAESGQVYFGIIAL

Molecular target: T1, recombinant human TNFα (human, UniProt P01375 77-233)
T1 construct: E. coli-derived or bought recombinant human TNF (Suntory, Dainippon, R&D Systems); also called rhTNF; rhTNFα
Experiment: Scatchard analysis, direct binding of 125I-labelled antibody to rhTNFα immobilized in a 96-well plate

Binder | Ka
mouse anti-human TNF IgG1 mAb A2 (antibody, V domains shown, Mouse IgG1 from hybridoma A2 (cell line c134A); also called murine A2; mA2) VH: EVKLEESGGGLVQPGGSMKLSCVASGFIFSNHWMNWVRQSPEKGLEWVAEIRSKSINSATHYAESVKGRFTISRDDSKSAVYLQMTDLRTEDTGVYYCSRNYYGSTYDYWGQGTTLTVS VL: DILLTQSPAILSVSPGERVSFSCRASQFVGSSIHWYQQRTNGSPRLLIKYASESMSGIPSRFSGSGSGTDFTLSINTVESEDIADYYCQQSHSWPFTFGSGTNLEVK | 5e+08 M⁻¹
chimeric A2 (cA2) anti-TNF antibody (antibody, V domains shown, Expressed in SP2/0 cells (cell line c168A); also called chimeric mAb cA2) VH: EVKLEESGGGLVQPGGSMKLSCVASGFIFSNHWMNWVRQSPEKGLEWVAEIRSKSINSATHYAESVKGRFTISRDDSKSAVYLQMTDLRTEDTGVYYCSRNYYGSTYDYWGQGTTLTVS VL: DILLTQSPAILSVSPGERVSFSCRASQFVGSSIHWYQQRTNGSPRLLIKYASESMSGIPSRFSGSGSGTDFTLSINTVESEDIADYYCQQSHSWPFTFGSGTNLEVK | 1.8e+09 M⁻¹
